Target: CTLA-4 on the functional cells of the Promega anti-CTLA-4 blocking assay kit (UniProt P16410)
Experiment: cell-based or functional assay

## Yervoy (Ipilimumab) (antibody)
  EC50 (µg/ml), luciferase reporter, Promega anti-CTLA-4 blocking assay (CD80/CD86 aAPC/Raji cells with functional cells expressing CTLA-4): 0.933 µg/mL
